Our source for the EC50 values is ChEMBL document CHEMBL2157973, “An efficient synthesis of 3-OBn-6β,14-epoxy-bridged opiates from naltrexone and identification of a related dual MOR inverse agonist/KOR agonist” (Bioorg Med Chem Lett, 2012).

Amino acid sequences for entries named in this document (tags omitted).
UniProt P35372, whole entry: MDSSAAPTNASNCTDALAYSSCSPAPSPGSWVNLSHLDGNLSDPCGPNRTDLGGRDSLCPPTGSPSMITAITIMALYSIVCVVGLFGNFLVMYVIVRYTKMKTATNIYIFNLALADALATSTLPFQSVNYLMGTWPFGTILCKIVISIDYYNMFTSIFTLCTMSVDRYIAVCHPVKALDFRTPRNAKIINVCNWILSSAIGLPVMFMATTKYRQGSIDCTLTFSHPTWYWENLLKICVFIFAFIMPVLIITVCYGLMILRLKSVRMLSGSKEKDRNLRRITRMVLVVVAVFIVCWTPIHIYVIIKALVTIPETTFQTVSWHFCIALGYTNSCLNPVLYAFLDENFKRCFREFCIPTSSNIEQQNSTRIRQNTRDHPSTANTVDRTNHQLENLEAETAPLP

For this test, the target named is Mu-type opioid receptor (Homo sapiens, UniProt P35372). The test is described as follows: Inverse agonist activity at human recombinant mu opioid receptor expressed in CHO cells after 3 hrs by [35S]GTPgammaS binding assay. It counts as functional, cell-based. For orientation: Binding of GTPγS marks nucleotide exchange on a G protein.

A word on the EC50: it is the concentration that produces a half-maximal response. `Oc1ccc2c3c1O[C@H]1[C@H](O)CC[C@@]4(O)[C@@H](C2)N(CC2CC2)CC[C@]314`: the 50% effective concentration (EC50) was found to be 1.2 nM.
